Source: PubChem BioAssay AID588478 (ICCB-Longwood Screening Facility, Harvard Medical School, 2011)
The entries are a selection whose mix differs from that of the whole data set. Calls of active or inactive are those of the source.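 The calls were made as follows: active = mean inhibition over replicate wells above about 20% (limit read from the data); inactive = the rest.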

Amino acid sequences for entries named in this document (tags omitted).
UniProt Q9Y5K5, whole entry: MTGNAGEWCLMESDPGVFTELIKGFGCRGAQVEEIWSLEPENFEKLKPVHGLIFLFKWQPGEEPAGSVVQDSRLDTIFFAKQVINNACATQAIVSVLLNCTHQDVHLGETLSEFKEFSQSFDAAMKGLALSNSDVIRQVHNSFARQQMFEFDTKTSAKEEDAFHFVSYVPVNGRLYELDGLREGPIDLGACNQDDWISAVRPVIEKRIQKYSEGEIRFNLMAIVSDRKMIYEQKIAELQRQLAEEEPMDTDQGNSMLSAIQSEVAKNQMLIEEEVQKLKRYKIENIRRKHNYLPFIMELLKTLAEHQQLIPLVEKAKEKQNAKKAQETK

The compounds below were run against Ubiquitin carboxyl-terminal hydrolase isozyme L5 (Homo sapiens) (UniProt Q9Y5K5) (assay: proteasome-bound UCH37 DUB activity blockers – biochemical, Ub-AMC cleavage, fluorescence, primary screen (AID 588478;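 also: 0% = compound-free wells with enzyme and 100% = wells lacking proteasome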)). Conditions: purified proteasome/UCH37, Ub-AMC cleavage fluorescence; hits give high values; concentration not given here.
How it was run: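 Schedule: 30 min plus 25 min, room temperature / Material: human UCH37 within purified proteasomes / Technique: AMC fluorescence intensity at 355/460 nm / Buffer or medium: pH 7.4 Tris-HCl (50 mM) with ovalbumin, ATP-MgCl2, DTT / Controls: wells without proteasome as full block, compound-free enzyme plus substrate as uninhibited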

| SMILES | inhibition |
| --- | --- |
| O=[N+]([O-])c1cccc(NC2=NCC(CBr)S2)c1 (stereo not given) | inactive: 2.47% |
| O=[N+]([O-])c1ncn(CCn2ncnc2[N+](=O)[O-])n1 | inactive: 2.23% |
| CC(C)(C)C(=O)NC(Sc1ccncn1)C(Cl)(Cl)Cl (stereo not given) | inactive: 3.01% |
| CP(=O)(OC12CC3CC(CC(C3)C1)C2)OC12CC3CC(CC(C3)C1)C2 | inactive: 2.9% |
| O=C(Nc1cc([As](=O)(O)O)ccc1O)c1ccccc1 | inactive: 2.3% |
| O=P1(N(CCCl)CCCl)OCCCS1 (stereo not given) | inactive: -0.0903% |
| Nc1ccc2c(ccc3cccnc32)n1.O=[N+]([O-])c1cc([N+](=O)[O-])c(O)c([N+](=O)[O-])c1 | inactive: -42% |
| CC1CCN(C(=O)Oc2c(Cl)cc(Cl)c3cccnc23)CC1 | inactive: -0.956% |
| CN(C)C(=O)c1c([N+](=O)[O-])cc([N+](=O)[O-])cc1[N+](=O)[O-] | inactive: 10.9% |
| CP(=O)(Nc1ccc(Cl)cc1)Oc1ccc(F)cc1 (stereo not given) | inactive: 3.58% |
| Nc1ccc([As](=O)(O)c2ccc(N)cc2)cc1 | inactive: 2.74% |
| CC(C)(C)c1ccc(OP(C)(=O)O)cc1 | inactive: -0.0765% |
| COc1ccccc1OP(C)(=O)Nc1ccccc1Br (stereo not given) | inactive: 3.44% |
| C[N+]1=C2C=CC=CC=C2SC12C([N+](=O)[O-])=CC([N+](=O)[O-])=C[C-]2[N+](=O)[O-] (stereo not given) | inactive: 9.02% |
| Cc1ccc(NP(=O)(Oc2ccccc2)Oc2ccccc2)nc1 | inactive: -1.7% |
| CP(=O)(Oc1ccccc1)N1CCOC1=O (stereo not given) | inactive: 2.35% |
| O=[N+]([O-])c1cc([N+](=O)[O-])c(CCNc2ccccc2)c([N+](=O)[O-])c1 | inactive: 3.66% |
| CCc1nc2c(n1)c1c(non1O)c1c2no[n+]1[O-] | inactive: 11.8% |
| CCc1ccc(OP(C)(=O)Nc2cccnc2)cc1 (stereo not given) | inactive: 1.88% |
| COc1ccccc1OP(C)(=O)Nc1c(C)n(C)n(-c2ccccc2)c1=O (stereo not given) | inactive: 0.32% |
| CC(=O)N1C2C3N(C(C)=O)C1C1N(C(C)=O)C(C(N1C(C)=O)N3C(C)=O)N2C(C)=O | inactive: 1.37% |
| O=[N+]([O-])c1cccc2n[nH]nc12 | inactive: 5.67% |
| O=C(OCCCN1CCCC1)C(O)(c1ccccc1)C1CCCCC1 (stereo not given) | inactive: 2.63% |
| CCN(CC)CC(O)COC(=O)C(O)(c1ccccc1)C1CCCCC1 (stereo not given) | inactive: -0.547% |
| COc1ccc(C2=NCC(CBr)S2)cc1 (stereo not given) | inactive: 6.25% |

| SMILES | inhibition |
| --- | --- |
| COc1ccc(OP(C)(=O)Nc2ccc(Br)cc2)cc1 (stereo not given) | inactive: 4.56% |
| CCC(C)N(CC(C)C)C(=S)SC(NC(C)=O)C(Cl)(Cl)Cl (stereo not given) | inactive: 5.34% |
| CP(=O)(Nc1ccccn1)Oc1ccc(Cl)cc1 (stereo not given) | inactive: -0.356% |
| O=C(OC1CN2CCC1CC2)c1cccc([N+](=O)[O-])c1 (stereo not given) | inactive: 3.54% |
| CCOP(C)(=S)SCC(=O)NC(C)C(=O)O (stereo not given) | inactive: 1.3% |
| O=[N+]([O-])c1cc([N+](=O)[O-])c(O)c([N+](=O)[O-])c1.c1ccc(Oc2ccncc2)cc1 | inactive: 16.9% |
| CCOC(=O)c1ccc(NC(=O)C(C)(CCl)SC)cc1 (stereo not given) | inactive: 2.99% |
| CCOC(=O)c1ccc(NP(C)(=O)Oc2ccc(OC)cc2)cc1 (stereo not given) | inactive: 5.31% |
| CCc1ccc(OP(C)(=O)N2CCN(c3ccc([N+](=O)[O-])cc3)CC2)cc1 (stereo not given) | inactive: 8.19% |
| CP(=O)(NC(=O)Nc1ccccc1)Oc1ccccc1 (stereo not given) | inactive: 0.467% |
| O=C(COc1ccccc1)OC1CN2CCC1CC2 (stereo not given) | inactive: 4.19% |
| Cc1cc(C)cc(OP(C)(=O)Nc2ccc(SC(F)(F)F)cc2)c1 (stereo not given) | inactive: 5.51% |
| O=C(Nc1ccncc1[N+](=O)[O-])c1ccc([N+](=O)[O-])cc1[N+](=O)[O-] | inactive: 3.73% |
| CP(=O)(Nc1ccc(SC(F)(F)F)cc1)Oc1ccc(Cl)cc1 (stereo not given) | inactive: 3.16% |
| Cc1cccc(C)c1OP(C)(=O)Nc1ccc(SC(F)(F)F)cc1 (stereo not given) | inactive: 2.15% |
| COP1(=S)c2c(C)nn(CCC#N)c2N=C(c2ccc(F)cc2)N1C (stereo not given) | inactive: 1.15% |
| CP(=O)(Oc1ccccc1)OC(c1ccccc1)C(F)(F)F (stereo not given) | inactive: 1.44% |
| Cc1cc(SC(NC=O)C(Cl)(Cl)Cl)ncn1 (stereo not given) | inactive: -0.849% |
| O=P(Nc1ccccn1)(c1cccc2ccccc12)c1cccc2ccccc12 | inactive: 1.77% |
| COc1ccccc1OP(C)(=O)Nc1ccccc1 (stereo not given) | inactive: 0.604% |
| CP(=O)(Nc1ccccc1Br)Oc1ccccc1 (stereo not given) | inactive: 1.8% |
| O=[N+]([O-])c1ccc(Nc2ccc(Oc3ccc([N+](=O)[O-])cc3[N+](=O)[O-])cc2)c([N+](=O)[O-])c1 | inactive: 7.63% |
| CP(=S)(Nn1cnnc1)Oc1ccccc1 (stereo not given) | inactive: 3.85% |
| CCOC(=O)Nc1cccc([As](=O)(O)O)c1 | inactive: 1.37% |
| CCCCOc1ccc(C(=O)NCC2(N3CCCCC3)CCCCC2)cc1OC | inactive: 1.38% |

| SMILES | inhibition |
| --- | --- |
| COc1ccc(NC(=NP(=O)(N2CCOCC2)N2CCOCC2)N2CCOCC2)cc1 | inactive: 0.402% |
| Cc1cc(SC(NC(=O)c2ccccc2)C(Cl)(Cl)Cl)nc(C(C)C)n1 (stereo not given) | inactive: -4.85% |
| CCOC(=O)Nc1ccc([As](=O)(O)O)c(O)c1 | inactive: 3.68% |
| CC1CCNP(=O)(N(CCCl)CCCl)O1 (stereo not given) | inactive: 3.98% |
| CCN(CC)C(=S)SC(NC=O)C(Cl)(Cl)Cl (stereo not given) | inactive: -3.8% |
| O=C(OC1CN2CCC1CC2)c1cccc2[nH]cnc12 (stereo not given) | inactive: 1.09% |
| CC(C)NC(=O)NP(=O)(Oc1ccccc1)Oc1ccccc1 | inactive: 1.26% |
| COc1ccccc1OP(C)(=O)Nc1cc(Cl)ccc1C (stereo not given) | inactive: 4.86% |
| O=[N+]([O-])c1cc([N+](=O)[O-])c(-c2ccn[nH]2)s1 | inactive: 8.72% |
| COc1ccc(OP(C)(=O)Nc2cccc(F)c2)cc1 (stereo not given) | inactive: 3.76% |
| Cc1cc(C)cc(OP(C)(N)=O)c1 (stereo not given) | inactive: -0.253% |
| CCOC(=O)c1ccc(NP(C)(=O)Oc2ccccc2)cc1 (stereo not given) | inactive: 1.78% |
| ClCCSc1nnc(-c2cccnc2)o1 | inactive: 5.39% |
| COc1ccccc1OP(C)(=O)Nc1ccc(C)cc1 (stereo not given) | inactive: -1.68% |
| Cc1ccc(NP(C)(=O)Oc2ccccc2)c(C)c1 (stereo not given) | inactive: 0.0842% |
| CC(C)c1ccc(OP(=O)(Nc2ccccn2)Oc2ccccc2F)cc1 (stereo not given) | inactive: 8.59% |
| CC(C)(C)c1ccc(OP(C)(=O)Nc2ccc(SC(F)(F)F)cc2)cc1 (stereo not given) | inactive: 4.4% |
| Cc1ccc(OP(=O)(Nc2ccc([N+](=O)[O-])cn2)Oc2ccc(C)cc2)cc1 | inactive: 3.78% |
| Cc1cccc(C)c1OP(C)(N)=O (stereo not given) | inactive: 0.0345% |
| Cc1ccc2nc3c(c(C)c2c1)CC(C(Cl)Cl)S3 (stereo not given) | inactive: 1.63% |
| O=[N+]([O-])c1ccc2c(c1)C=Nc1ccccc1O2 | inactive: 5.92% |
| CCCC(C)(O)C1CC23C=CC1(OC)C1Oc4c(O)ccc5c4[C@@]12CCN(C)[C@@H]3C5 (stereo not given in full) | inactive: 1.32% |
| O=[N+]([O-])c1cc([N+](=O)[O-])c(Nc2cccnc2)c([N+](=O)[O-])c1 | inactive: 3.57% |
| O=[As](O)(c1ccc(O)cc1)c1ccccc1O | inactive: 1.07% |
| C[As](=O)(O)c1cccc(C(=O)O)c1 | inactive: 1.92% |

| SMILES | inhibition |
| --- | --- |
| COc1cc(C(=O)NCC2(N3CCOCC3)CCCCC2)ccc1OCC(C)C | inactive: 0.609% |
| CCC(CO)(C(=O)OC1CN2CCC1CC2)c1ccccc1 (stereo not given) | inactive: 4.13% |
| O=P1(N(CCCl)CCCl)Nc2ccccc2N1 | inactive: 1.64% |
| COc1ccc2nc(NP(=O)(c3ccccc3)c3ccccc3)sc2c1 | inactive: 2.32% |
| COc1cc(I)ccc1[As](=O)(O)O | inactive: -0.0878% |
| Cc1c2c(nc3ccccc13)SC(C(Cl)Cl)C2 (stereo not given) | inactive: 4.27% |
| O=C(OC1CN2CCC1CC2)C12CC3CC(CC(C3)C1)C2 (stereo not given) | inactive: 0.711% |
| Cc1cc(=O)[nH]c(N[N+](=O)[O-])n1 | inactive: -0.81% |
| CCN(CC)CCCOC(=O)C(O)(c1ccccc1)c1ccccc1 | inactive: 3.71% |
| CCOP(=O)(Nc1cccc2ccccc12)OCC | inactive: 0.117% |
| CP(=O)(Nc1cccc(Br)c1)Oc1ccccc1 (stereo not given) | inactive: 1.33% |
| Cc1cc(C)cc(OP(C)(=O)Nc2ccccn2)c1 (stereo not given) | inactive: -0.718% |
| Cc1ccc(NCCc2c([N+](=O)[O-])cc([N+](=O)[O-])cc2[N+](=O)[O-])cc1 | inactive: 3.57% |
| CCCOP(=S)(Nc1nc(N)cc(=O)[nH]1)OCCC | inactive: 2.07% |
| Cc1ccc(C)c(NP(C)(=O)Oc2ccccc2)c1 (stereo not given) | inactive: 2.15% |
| O=[As](O)(c1cccc(O)c1)c1cccc(O)c1 | inactive: -1.13% |
| Cc1cccc(OCC(=O)OC2CN3CCC2CC3)c1 (stereo not given) | inactive: -0.706% |
| Cc1cc(C)cc(OP(C)(=O)Nc2ccc(C)cc2C)c1 (stereo not given) | inactive: 0.46% |
| CCOC(=O)c1ccc(NP(C)(=O)Oc2cc(C)cc(C)c2)cc1 (stereo not given) | inactive: 0.845% |
| O=C(OC1CN2CCC1CC2)c1ccc(Cl)cc1 (stereo not given) | inactive: 4.46% |
| COc1cc(C(=O)NCC2(N3CCOCC3)CCCCC2)cc(Cl)c1OC(C)C | inactive: 0.756% |
| O=[As](O)(O)c1cccnc1 | inactive: 2.35% |
| COc1ccccc1OP(C)(=O)Nc1cccc(Br)c1 (stereo not given) | inactive: 3.91% |
| CS(=O)(=O)c1ccc(Cl)c(NC(=O)COC(=O)C(O)(c2ccccc2)c2ccccc2)c1 | inactive: 3.46% |
| N#CCCN(C(=O)COC(=O)C(O)(c1ccccc1)c1ccccc1)c1ccc(F)cc1 | inactive: -0.36% |
